System: A-375
Experiment: Antiproliferation activity against human A-375 cells assessed as cell growth inhibition incubated for 5 days by CCK-8 assay
Assay type: functional, cell-based
Conditions: time 5.0 day

C[C@H](Oc1ccc(-c2cc3c(C4=CCNCC4)ncnc3[nH]2)cc1)c1ccccc1
Activity: Dde

Source: ChEMBL document CHEMBL5154928, “Structure-Aided Design, Synthesis, and Biological Evaluation of Potent and Selective Non-Nucleoside Inhibitors Targeting Protein Arginine Methyltransferase 5” (J Med Chem, 2022)
